# Measured values as given in PubChem BioAssay (NCI).
#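 Briefly, cells in 96-well plates were exposed to five compound concentrations for 48 h, and endpoints were estimated by linear interpolation. GI50 = concentration required for 50% inhibition of growth. Definition used: TGI = concentration required for complete inhibition of growth.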
# What was measured:
# Assay in all cases: growth of human tumour cells (NCI), 48 h
# MOLT-4 leukemia = system: MOLT-4 leukemia
# BT-549 breast = system: BT-549 breast
# MDA-MB-435 = system: MDA-MB-435
# KM12 colon = system: KM12 colon
# UACC-257 melanoma = system: UACC-257 melanoma
# HCT-15 colon = system: HCT-15 colon
# T-47D breast = system: T-47D breast
# M14 melanoma = system: M14 melanoma
# ACHN renal = system: ACHN renal
# A498 renal = system: A498 renal
# COLO 205 colon = system: COLO 205 colon
# OVCAR-5 ovarian = system: OVCAR-5 ovarian
# MDA-N = system: MDA-N
# MDA-MB-231 breast = system: MDA-MB-231 breast
# A549 NSCLC = system: A549 NSCLC
# NCI-H522 lung = system: NCI-H522 lung
# SK-MEL-5 melanoma = system: SK-MEL-5 melanoma
# SK-MEL-28 melanoma = system: SK-MEL-28 melanoma
# SK-OV-3 ovarian = system: SK-OV-3 ovarian
# K-562 leukemia = system: K-562 leukemia
# HOP-62 NSCLC = system: HOP-62 NSCLC
# NCI-H23 lung = system: NCI-H23 lung
# SK-MEL-2 melanoma = system: SK-MEL-2 melanoma
# NCI-H226 lung = system: NCI-H226 lung
# EKVX NSCLC = system: EKVX NSCLC
# NCI/ADR-RES ovarian = system: NCI/ADR-RES ovarian
# CAKI-1 renal = system: CAKI-1 renal
# SN12C renal = system: SN12C renal
# SW-620 colon = system: SW-620 colon
# OVCAR-4 ovarian = system: OVCAR-4 ovarian
# SF-539 CNS = system: SF-539 CNS
# U251 CNS = system: U251 CNS
# HCC-2998 colon = system: HCC-2998 colon
# MALME-3M melanoma = system: MALME-3M melanoma
# SF-268 CNS = system: SF-268 CNS
# UO-31 renal = system: UO-31 renal
# HL-60(TB) leukemia = system: HL-60(TB) leukemia
# HOP-92 NSCLC = system: HOP-92 NSCLC
# CCRF-CEM leukemia = system: CCRF-CEM leukemia
# 786-0 renal = system: 786-0 renal
# SNB-19 CNS = system: SNB-19 CNS
# SF-295 CNS = system: SF-295 CNS
# NCI-H460 lung = system: NCI-H460 lung
# OVCAR-8 ovarian = system: OVCAR-8 ovarian
# NCI-H322M lung = system: NCI-H322M lung
# LOX IMVI melanoma = system: LOX IMVI melanoma
# HT29 colon = system: HT29 colon
# SR leukemia = system: SR leukemia
# RXF 393 renal = system: RXF 393 renal
# DU-145 prostate = system: DU-145 prostate
# PC-3 prostate = system: PC-3 prostate
# HCT-116 colon = system: HCT-116 colon
# HS 578T breast = system: HS 578T breast
# SNB-75 CNS = system: SNB-75 CNS
# TK-10 renal = system: TK-10 renal
# UACC-62 melanoma = system: UACC-62 melanoma
# MCF7 breast = system: MCF7 breast
# IGROV1 ovarian = system: IGROV1 ovarian
structure (smiles),measurement,setting,value
CC(=O)OC1(C)CC(=O)OCC23CCC(C)=CC2OC2CC(OC(=O)/C=C/C=C/C(C(C)O)OCC1O)C3(C)C21CO1 (stereo not given),GI50,MOLT-4 leukemia,55.5 nM
same,TGI,MOLT-4 leukemia,944 nM
same,GI50,BT-549 breast,137 nM
same,TGI,BT-549 breast,577 nM
same,GI50,MDA-MB-435,160 nM
same,TGI,MDA-MB-435,389 nM
same,GI50,KM12 colon,101 nM
same,TGI,KM12 colon,1730 nM
same,GI50,UACC-257 melanoma,170 nM
same,TGI,UACC-257 melanoma,432 nM
same,GI50,HCT-15 colon,180 nM
same,TGI,HCT-15 colon,558 nM
same,GI50,T-47D breast,188 nM
same,TGI,T-47D breast,649 nM
same,GI50,M14 melanoma,101 nM
same,TGI,M14 melanoma,255 nM
same,GI50,ACHN renal,171 nM
same,TGI,ACHN renal,582 nM
same,GI50,A498 renal,248 nM
same,TGI,A498 renal,570 nM
same,GI50,COLO 205 colon,156 nM
same,TGI,COLO 205 colon,299 nM
same,GI50,OVCAR-5 ovarian,232 nM
same,TGI,OVCAR-5 ovarian,639 nM
same,GI50,MDA-N,130 nM
same,TGI,MDA-N,356 nM
same,GI50,MDA-MB-231 breast,295 nM
same,TGI,MDA-MB-231 breast,897 nM
same,GI50,A549 NSCLC,232 nM
same,TGI,A549 NSCLC,703 nM
same,GI50,NCI-H522 lung,32 nM
same,TGI,NCI-H522 lung,114 nM
same,GI50,SK-MEL-5 melanoma,41.4 nM
same,TGI,SK-MEL-5 melanoma,154 nM
same,GI50,SK-MEL-28 melanoma,88 nM
same,TGI,SK-MEL-28 melanoma,339 nM
same,GI50,SK-OV-3 ovarian,103 nM
same,TGI,SK-OV-3 ovarian,578 nM
same,GI50,K-562 leukemia,61.3 nM
same,TGI,K-562 leukemia,456 nM
same,GI50,HOP-62 NSCLC,140 nM
same,TGI,HOP-62 NSCLC,471 nM
same,GI50,NCI-H23 lung,123 nM
same,TGI,NCI-H23 lung,313 nM
same,GI50,SK-MEL-2 melanoma,52.3 nM
same,TGI,SK-MEL-2 melanoma,265 nM
same,GI50,NCI-H226 lung,67.4 nM
same,TGI,NCI-H226 lung,318 nM
same,GI50,EKVX NSCLC,284 nM
same,TGI,EKVX NSCLC,872 nM
same,GI50,NCI/ADR-RES ovarian,2800 nM
same,GI50,CAKI-1 renal,260 nM
same,TGI,CAKI-1 renal,1450 nM
same,GI50,SN12C renal,235 nM
same,TGI,SN12C renal,776 nM
same,GI50,SW-620 colon,234 nM
same,TGI,SW-620 colon,874 nM
same,GI50,OVCAR-4 ovarian,79.6 nM
same,TGI,OVCAR-4 ovarian,279 nM
same,GI50,SF-539 CNS,37.9 nM
same,TGI,SF-539 CNS,136 nM
same,GI50,U251 CNS,71 nM
same,TGI,U251 CNS,341 nM
same,GI50,HCC-2998 colon,41.7 nM
same,TGI,HCC-2998 colon,181 nM
same,GI50,MALME-3M melanoma,45.6 nM
same,TGI,MALME-3M melanoma,205 nM
same,GI50,SF-268 CNS,201 nM
same,TGI,SF-268 CNS,515 nM
same,GI50,UO-31 renal,416 nM
same,TGI,UO-31 renal,2320 nM
same,GI50,HL-60(TB) leukemia,27.2 nM
same,TGI,HL-60(TB) leukemia,92.9 nM
same,GI50,HOP-92 NSCLC,111 nM
same,TGI,HOP-92 NSCLC,374 nM
same,GI50,CCRF-CEM leukemia,69.1 nM
same,TGI,CCRF-CEM leukemia,434 nM
same,GI50,786-0 renal,182 nM
same,TGI,786-0 renal,487 nM
same,GI50,SNB-19 CNS,93 nM
same,TGI,SNB-19 CNS,491 nM
same,GI50,SF-295 CNS,191 nM
same,TGI,SF-295 CNS,483 nM
same,GI50,NCI-H460 lung,30.2 nM
same,TGI,NCI-H460 lung,96.8 nM
same,GI50,OVCAR-8 ovarian,201 nM
same,TGI,OVCAR-8 ovarian,561 nM
same,GI50,NCI-H322M lung,299 nM
same,TGI,NCI-H322M lung,1120 nM
same,GI50,LOX IMVI melanoma,26.6 nM
same,TGI,LOX IMVI melanoma,64.2 nM
same,GI50,HT29 colon,160 nM
same,TGI,HT29 colon,451 nM
same,GI50,SR leukemia,39.1 nM
same,TGI,SR leukemia,414 nM
same,GI50,RXF 393 renal,65.7 nM
same,TGI,RXF 393 renal,235 nM
same,GI50,DU-145 prostate,212 nM
same,TGI,DU-145 prostate,476 nM
same,GI50,PC-3 prostate,208 nM
same,TGI,PC-3 prostate,628 nM
same,GI50,HCT-116 colon,53.9 nM
same,TGI,HCT-116 colon,254 nM
same,GI50,HS 578T breast,168 nM
same,TGI,HS 578T breast,539 nM
same,GI50,SNB-75 CNS,119 nM
same,TGI,SNB-75 CNS,344 nM
same,GI50,TK-10 renal,242 nM
same,TGI,TK-10 renal,714 nM
same,GI50,UACC-62 melanoma,192 nM
same,TGI,UACC-62 melanoma,426 nM
same,GI50,MCF7 breast,49.8 nM
same,TGI,MCF7 breast,512 nM
same,GI50,IGROV1 ovarian,105 nM
same,TGI,IGROV1 ovarian,436 nM
